The record followed here is patent publication US20060079453A1, “Hla binding peptides and their uses” (priority 2002, published 2006).

Common to all, as to test: biochemical
One assay addresses HLA-A*0203 (Homo sapiens, UniProt P04439, A173T/D140Y/D185E/D98H/E277Q/G131W/G231S/I119V/I121R/I166T/I218V/L180W/L300P/L318F/N151K/N90K/P208A/P217A/Q86G/Q94H/R138H/R169H/T345S). The class given is binding. As to conditions: A*0203 binding affinity (expressed as an IC50).
A further assay addresses HLA-A*6802 (Homo sapiens, UniProt P04439, A269V/D140Y/D185E/E176V/E277Q/E87N/F33Y/G231S/I121R/I166T/I218V/L180W/L300P/L318F/N151K/P208A/P217A/Q86R/R138H/R169H/S129P/T345S/V36M). As to conditions: A*6802 binding affinity (expressed as an IC50).
The target of another assay is HLA-A*0206 (Homo sapiens, UniProt P04439, D140Y/D185E/D98H/E176V/E277Q/F33Y/G131W/G231S/I119V/I121R/I166T/I218V/L300P/L318F/N151K/N90K/P208A/P217A/Q86G/Q94H/R138H/R169H/T345S). The class given is binding. As to conditions: A*0206 binding affinity (expressed as an IC50).

Turning to `CC(C)C[C@H](NC(=O)[C@H](Cc1c[nH]c2ccccc12)NC(=O)[C@@H](NC(=O)[C@H](Cc1ccccc1)NC(=O)[C@H](Cc1ccccc1)NC(=O)[C@H](CC(=O)O)NC(=O)[C@H](Cc1ccc(O)cc1)NC(=O)[C@@H](NC(=O)[C@@H](N)CO)C(C)C)C(C)C)C(=O)O`, the IC50 at HLA-A*0203 was 226 nM; on HLA-A*6802 it was 0.86 nM; at HLA-A*0206 it was 10 nM.

In general, IC50 refers to the concentration that inhibits the measured activity by half.
